scFv variants of Ab-14 (light chain) against a SARS-CoV-2 spike peptide

Data: MIT Lincoln Laboratory AlphaSeq set, Li et al. 2023, doi:10.1038/s41467-023-39022-2, as distributed in FLAb.

Target peptide (SARS-CoV-2 spike, HR2 region): PDVDLGDISGINAS

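Designed CDR sequences, proposed from the first random library and measured here. Several design methods are mixed in this list. The assay is AlphaSeq: two haploid yeast populations carry antibody and antigen on their surface. Pairs that bind mate more often; barcode pairs of the diploids are counted by sequencing. The ratio of observed to expected reads was calibrated, replicate by replicate, on BCL2-family standards whose Kd was known from biolayer interferometry. There are six technical replicates.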

The variants keep the heavy chain, the linker and the frameworks of Ab-14 (scFv order VH, a (GGGGS)3 linker, VL).
VH: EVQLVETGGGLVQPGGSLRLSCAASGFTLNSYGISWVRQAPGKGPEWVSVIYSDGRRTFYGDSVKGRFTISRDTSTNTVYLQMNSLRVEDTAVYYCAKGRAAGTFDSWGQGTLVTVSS
VL: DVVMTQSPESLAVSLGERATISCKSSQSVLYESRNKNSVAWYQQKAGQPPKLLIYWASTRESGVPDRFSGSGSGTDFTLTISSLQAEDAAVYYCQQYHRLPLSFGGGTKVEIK

Each variant is given by its three light chain CDRs, as the data file delimits them; those of the parent are KSSQSVLYESRNKNSVA, WASTRES, QQYHRLPLS. Variants here have more than six changes. Numbers give log10(Kd / nM), so 0 is 1 nM and 3 is 1 µM. Smaller is tighter. Replicates are averaged; those with no signal do not enter the mean. An entry "nd" has no value in the source: the pair was not observed among the diploids in any replicate. This suggests poor binding but is not conclusive. Empty control strains, which show no peptide, gave a signal in 4% of pairings with all light chain designs; the median was 2.64 and 95% of these signals were weaker than 1.59. No background was subtracted. A sequence measured in both rounds can read differently, since the two assays cover different ranges. In the paper, a design with two or fewer of six values counts as a poor binder. The parent sequence was in this pool as ten entries: three were never detected, three once, and four in most replicates, with averages from 0.34 to 2.37.

For RIDAYPPMQGNNIDSIA | ENAITLD | QQYANLPLS, the assay gave nd (0 of 6 replicates). The variant KLDGSDQYESRNKNSVA | DASTRES | QAYHRLPLS gave 0.08 (6 of 6 replicates). With KLQQSFLYESQNWNSVA | NASKRES | QQYHRLPLS the result was 0.76 (6 of 6 replicates). With KLEQSAMLESRNKNAVA | SASQREL | QQYHRLPLS the result was -0.29 (6 of 6 replicates). The variant NLAGMTAHESVKNSNVA | ERSTREK | QQYNRLPLS showed 0.81 (6 of 6 replicates). The variant MITQSFLIGMKAKNSVA | QTNTREE | QQYDRLPLI showed 0.18 (6 of 6 replicates). For QLNVNRLMNYTMNNAIA | GKTLRVD | QQYAQLPLS, the assay gave 0.48 (6 of 6 replicates). The variant HMSMLTLMGMRQRNSVA | QMTMREN | QQYDRLPLT gave 1.53 (6 of 6 replicates).

With HLAQSTDLESVHKNSIA | DLMTRES | QQYHRLPLS the result was 0.27 (6 of 6 replicates). The variant KISQMVRVGSTHSNSIA | EEAKRAD | QQYHRLPLA showed 0.57 (6 of 6 replicates). The variant HLSDTVMQGSYYKNSVA | QEQTRAD | QQYHRLPLS gave 0.05 (6 of 6 replicates). The variant TISQSTYWEEFNKNSVA | QTSTREE | QDYDRLPLS showed nd (0 of 6 replicates). The variant TLKMDKLPGQVNAYNIA | NAELVEN | QQYFHLPLY showed 1.43 (1 of 6 replicates). The variant QLNHYKHETMAKWQNIA | DMTIREK | QQYAHLPLA gave 0.25 (6 of 6 replicates). The variant HITYGMQVMGRHMESIA | QAEERAK | QQYDRLPLE gave 0.89 (6 of 6 replicates). With KFGQMVLTGAYVSNSVA | QMSTRAN | QQYHRLPLS the result was 0.56 (6 of 6 replicates).

The variant HITMGMYVAGHHHSSIA | QAETRAK | QQYDRLPLI showed 1.29 (6 of 6 replicates). The variant KLEFSVDYESRNKNAVA | NASTREK | QQYHRLPLS showed -0.28 (6 of 6 replicates). With KWSQSVPMGERNKNSVA | MAHKRES | QQYHRLPLS the result was 1.57 (6 of 6 replicates). For KLSISGLHQSIDKKSIA | ERSTREN | QQYHRLPLS, the assay gave 0.63 (6 of 6 replicates). For MISQLYNMGQFAINSVA | QAQTRNE | QQYDRLPLI, the assay gave 1.02 (5 of 6 replicates). For IISQSFLGEYHNKNSVA | QTSERGS | QQYDRLPLS, the assay gave 0.12 (6 of 6 replicates). The variant KIGVTLNTLMHQKNNVA | DLVTREN | QQYFRLPLS showed 0.50 (6 of 6 replicates). For AIQQHRLGTEQYLNAIA | NAQVRED | QQYMQLPLI, the assay gave 0.77 (6 of 6 replicates).

For KAQQSDLYESRNKNSVA | SASTRSQ | QQYHRLPLQ, the assay gave 0.37 (6 of 6 replicates). With MIAQGLRGVGRNKNSVA | NAQTRED | QHYHRLPLS the result was 1.66 (5 of 6 replicates). The variant QLQIEPNGYMGMRNNVA | DGVMVRM | QQYARLPLM gave 0.39 (6 of 6 replicates). The variant KLSFSNGYEDRNKNSVA | SASQRLM | QQYHRLPLS gave -0.31 (6 of 6 replicates). The variant KLQQLMLYESRMKNSVA | NASQRWS | QQYHRLPLS gave 0.37 (6 of 6 replicates). The variant NVSWKQSGFENEWMAVA | NTSERNA | QQYARLPIS showed 1.92 (6 of 6 replicates). The variant TIGQVMHYESRDKNSVA | QTSTREE | QDYDRLPLS gave 2.21 (4 of 6 replicates). The variant KLSQSDLYEDRNINSVA | NASQRCS | QQYHRLPLS gave 0.11 (6 of 6 replicates).

For reference, 3 entries of the list once more:

CDR-L1	CDR-L2	CDR-L3	mean, log10 nM	seen in
QLQIEPNGYMGMRNNVA	DGVMVRM	QQYARLPLM	0.39	6/6
KAQQSDLYESRNKNSVA	SASTRSQ	QQYHRLPLQ	0.37	6/6
KWSQSVPMGERNKNSVA	MAHKRES	QQYHRLPLS	1.57	6/6